# Experimental data taken from US11077078B2, “Compositions and methods for the treatment of cancer” (KoDiscovery, LLC, priority 2006, dated 2021).
# Test system: human lung cancer cells
smiles,measurement,value
"O=C(O)C(=O)CBr [3-Bromopyruvate, 3-bromopyruvate]",effectiveness vs the closest comparative known anti-cancer agent,more than twice as effective
